Measured values as given in publication PMC3701955 (Bioorganic & medicinal chemistry, 2012).
Read-outs that look alike come from different tables or passages of the source.

Assay type: in vivo
Conditions: female Sprague–Dawley rats, iv; for Biodistribution of radioactivity in brain region, Amygdala / Biodistribution of radioactivity in brain region, Basal Hypothalamus / Biodistribution of radioactivity in brain region, Cerebellum / Biodistribution of radioactivity in brain region, Dorsal Striatum / Biodistribution of radioactivity in brain region, Remaining Brain / Biodistribution of radioactivity, Blood / Biodistribution of radioactivity, Bone / Biodistribution of radioactivity, Heart / Biodistribution of radioactivity, Kidney / Biodistribution of radioactivity, Lung / Biodistribution of radioactivity, Muscle / Biodistribution of radioactivity, Brain: mean ± SD; for Biodistribution of radioactivity, Brain: total brain

1-(4-(3,4-Dihydroquinolin-1(2H)-yl)piperidin-1-yl)-2-(2-(2-[^18F]fluoroethoxy)-4-((1-(methylsulfonyl)piperidin-4-yl)oxy)phenyl)ethanone [[^18F]3]
brain uptake across all time points (15-120 min): ≤ 0.05 ± 0.01 % ID/g
Biodistribution of radioactivity in brain region, Amygdala (15 min): 0.05 ± 0.01 %ID/g
Biodistribution of radioactivity in brain region, Basal Hypothalamus (15 min): 0.03 ± 0.01 %ID/g
Biodistribution of radioactivity in brain region, Cerebellum (15 min): 0.02 ± 0.01 %ID/g
Biodistribution of radioactivity in brain region, Dorsal Striatum (15 min): 0.02 ± 0.01 %ID/g
Biodistribution of radioactivity in brain region, Remaining Brain (15 min): 0.02 ± 0.01 %ID/g
Biodistribution of radioactivity, Blood (15 min): 0.07 ± 0.04 %ID/g
Biodistribution of radioactivity, Bone (15 min): 0.05±0.01 %ID/g
Biodistribution of radioactivity, Heart (15 min): 0.17 ± 0.09 %ID/g
Biodistribution of radioactivity, Kidney (15 min): 0.27±0.11 %ID/g
Biodistribution of radioactivity, Lung (15 min): 0.39 ± 0.3 %ID/g
Biodistribution of radioactivity, Muscle (15 min): 0.07 ± 0.01 %ID/g
Biodistribution of radioactivity, Brain (15 min): 0.02 ± 0.01 %ID/g
Biodistribution of radioactivity in brain region, Amygdala (30 min): 0.10 ± 0.03 %ID/g
Biodistribution of radioactivity in brain region, Basal Hypothalamus (30 min): 0.03 ± 0.01 %ID/g
Biodistribution of radioactivity in brain region, Cerebellum (30 min): 0.05 ± 0.04 %ID/g
Biodistribution of radioactivity in brain region, Dorsal Striatum (30 min): 0.03 ± 0.01 %ID/g
Biodistribution of radioactivity in brain region, Remaining Brain (30 min): 0.02 ± 0.01 %ID/g
Biodistribution of radioactivity, Blood (30 min): 0.06 ± 0.01 %ID/g
Biodistribution of radioactivity, Bone (30 min): 0.05 ± 0.01 %ID/g
Biodistribution of radioactivity, Heart (30 min): 0.09 ± 0.02 %ID/g
Biodistribution of radioactivity, Kidney (30 min): 0.15 ± 0.04 %ID/g
Biodistribution of radioactivity, Lung (30 min): 0.1 ± 0.03 %ID/g
Biodistribution of radioactivity, Muscle (30 min): 0.06 ± 0.01 %ID/g
Biodistribution of radioactivity, Brain (30 min): 0.02 ± 0.01 %ID/g
Biodistribution of radioactivity in brain region, Amygdala (60 min): 0.11 ± 0.07 %ID/g
Biodistribution of radioactivity in brain region, Basal Hypothalamus (60 min): 0.06 ± 0.01 %ID/g
Biodistribution of radioactivity in brain region, Cerebellum (60 min): 0.02 ± 0.01 %ID/g
Biodistribution of radioactivity in brain region, Dorsal Striatum (60 min): 0.03 ± 0.01 %ID/g
Biodistribution of radioactivity in brain region, Remaining Brain (60 min): 0.02 ± 0.01 %ID/g
Biodistribution of radioactivity, Blood (60 min): 0.04 ± 0.02 %ID/g
Biodistribution of radioactivity, Bone (60 min): 0.03 ± 0.01 %ID/g
Biodistribution of radioactivity, Heart (60 min): 0.07 ± 0.02 %ID/g
Biodistribution of radioactivity, Kidney (60 min): 0.08 ± 0.02 %ID/g
Biodistribution of radioactivity, Lung (60 min): 0.1 ± 0.03 %ID/g
Biodistribution of radioactivity, Muscle (60 min): 0.03 ± 0.01 %ID/g
Biodistribution of radioactivity, Brain (60 min): 0.02 ± 0.01 %ID/g
Biodistribution of radioactivity in brain region, Amygdala (120 min): 0.13 ± 0.02 %ID/g
Biodistribution of radioactivity in brain region, Basal Hypothalamus (120 min): 0.11 ± 0.04 %ID/g
Biodistribution of radioactivity in brain region, Cerebellum (120 min): 0.04 ± 0.03 %ID/g
Biodistribution of radioactivity in brain region, Dorsal Striatum (120 min): 0.05 ± 0.03 %ID/g
Biodistribution of radioactivity in brain region, Remaining Brain (120 min): 0.03 ± 0.03 %ID/g
Biodistribution of radioactivity, Blood (120 min): 0.09 ± 0.04 %ID/g
Biodistribution of radioactivity, Bone (120 min): 0.07 ± 0.04 %ID/g
Biodistribution of radioactivity, Heart (120 min): 0.08 ± 0.02 %ID/g
Biodistribution of radioactivity, Kidney (120 min): 0.10 ± 0.02 %ID/g
Biodistribution of radioactivity, Lung (120 min): 0.19 ± 0.15 %ID/g
Biodistribution of radioactivity, Muscle (120 min): 0.07 ± 0.04 %ID/g
Biodistribution of radioactivity, Brain (120 min): 0.04 ± 0.03 %ID/g
